{"sequences": {"note": "The chains behind the UniProt entries cited, without tags or fusion partners.", "UniProt P10275, whole entry T878A": "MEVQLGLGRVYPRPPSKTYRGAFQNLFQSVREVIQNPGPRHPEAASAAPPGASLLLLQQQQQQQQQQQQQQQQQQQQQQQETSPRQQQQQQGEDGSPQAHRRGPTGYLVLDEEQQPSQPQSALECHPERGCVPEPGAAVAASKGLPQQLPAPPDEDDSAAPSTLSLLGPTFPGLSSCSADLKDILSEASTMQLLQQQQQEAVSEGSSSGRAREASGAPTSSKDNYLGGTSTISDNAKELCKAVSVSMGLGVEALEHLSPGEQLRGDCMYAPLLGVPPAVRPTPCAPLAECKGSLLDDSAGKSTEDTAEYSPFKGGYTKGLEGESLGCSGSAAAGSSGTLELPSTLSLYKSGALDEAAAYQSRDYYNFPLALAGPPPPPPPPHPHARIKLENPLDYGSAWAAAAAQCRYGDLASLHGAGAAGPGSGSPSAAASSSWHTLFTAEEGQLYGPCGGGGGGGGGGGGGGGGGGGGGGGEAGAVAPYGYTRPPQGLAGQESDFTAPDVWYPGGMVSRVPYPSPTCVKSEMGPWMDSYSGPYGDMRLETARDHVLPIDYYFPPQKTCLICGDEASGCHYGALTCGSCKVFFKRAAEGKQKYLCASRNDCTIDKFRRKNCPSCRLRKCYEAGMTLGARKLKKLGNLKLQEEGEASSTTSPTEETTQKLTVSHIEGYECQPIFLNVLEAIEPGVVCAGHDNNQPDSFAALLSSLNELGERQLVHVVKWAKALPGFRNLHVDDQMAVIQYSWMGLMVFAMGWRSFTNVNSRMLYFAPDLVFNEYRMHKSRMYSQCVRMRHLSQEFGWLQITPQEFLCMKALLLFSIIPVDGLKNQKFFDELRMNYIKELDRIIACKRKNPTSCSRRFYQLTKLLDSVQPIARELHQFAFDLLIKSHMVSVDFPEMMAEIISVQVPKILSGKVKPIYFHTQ"}, "source": "patent US20250129074A1", "about": "“CHIMERIC COMPOUND FOR TARGETED DEGRADATION OF ANDROGEN RECEPTOR PROTEIN, PREPARATION METHOD THEREFOR, AND MEDICAL USE THEREOF” (Jiangsu Hengrui Pharmaceuticals Co., Ltd., priority 2021, published 2025)", "key": {"androgen receptor (AR)": {"target": "androgen receptor (AR) (Homo sapiens, UniProt P10275, T878A)", "assay": "Degradation activity on androgen receptor in LNCaP cells (AR ELISA)", "assay_type": "cell-based", "settings": "for Max (maximum AR degradation rate): 0.1 nM R1881, 24 hours; for DC50: read-out: LNCaP DC50, 0.1 nM R1881, 24 hours"}, "LNCaP cells": {"system": "LNCaP cells", "assay": "Inhibition of LNCaP proliferation (CellTiter-Glo)", "assay_type": "cell-based, human", "settings": "for Max (maximum proliferation inhibition rate): 0.1 nM R1881, six days; for IC50: read-out: LNCaP IC50, 0.1 nM R1881, six days"}, "[1]": {"assay": "Pharmacokinetic evaluation in SD rats", "assay_type": "in vivo", "settings": "i.g., 2.0 mg/kg"}, "[2]": {"system": "LNCap-FGC xenograft tumors", "assay": "Pharmacodynamic testing: LNCap-FGC subcutaneous xenograft in castrated CB17-SCID mice", "assay_type": "in vivo", "settings": "i.g.; for Mean tumor volume D 21 / Number of remaining animals/group / TGI D 21: qd/21 d", "from_the_text": "To evaluate the inhibition of the growth of castration-resistant prostate cancer LNCap-FGC subcutaneous xenograft tumors in male CB17-SCID mice by compounds of the present disclosure.\n• Example 15-1 compound; • Example 11-2 or 11-1 (longer retention time) compound; • ARV-110; and • 20% PEG400+75% (10% TPGS)+5% (1% HPMC K100LV) solution.\nTest animals: CB17-SCID male mice, purchased from Beijing Vital River Laboratory Animal Technology Co., Ltd. (certificate No. SCXK(Beijing)2016-0006; animal certification No. 110011220107542683), weighing about 20.54-26.72 g on purchase. Housing conditions: 5 animals/cage, a 12/12-hour light/dark cycle, a constant temperature of 23±1° C. with humidity at 50 to 60%, ad libitum access to food and water.\n0.2 mL (10×10^6 cells+Matrigel) of LNCaP FGC cells (Matrigel was added, in a 1:1 ratio by volume) in the logarithmic growth phase was subcutaneously inoculated into the right upper limb of each mouse. When the mean tumor volume reached 77 mm^3, male mice with stable tumor growth were selected and subjected to orchiectomy followed by three days of analgesic care. When the mean tumor volume reached 172 mm^3, grouping and administration were started. The day of grouping was defined as DO, and intragastric administration was started and performed once a day for 21 days. The 21th day after administration was defined as D21 (Table 7). For tumor-bearing mice, the tumor volume was measured with a vernier caliper and the body weight was measured with a balance twice a week, and data were recorded.\nAll data were plotted and statistically analyzed using Excel and GraphPad Prism 8 software.\nThe calculation formula for tumor volume (V) was: V=½×a×b^2, where a and b represent length and width, respectively.\nRelative tumor proliferation rate T/C(%)=(T-T0)/(C-C0)×100 (%), where T and C represent the tumor volumes of a treatment group and the control group at the end of the experiment; T0 and C0 represent the tumor volumes at the beginning of the experiment."}}}
{"compound": "C[C@H]1CC2(CCN(c3ccc(C(=O)N4CCC(CN5CCN(c6cccc(NC7CCC(=O)NC7=O)c6)CC5)CC4)cc3)CC2)CN1c1ccc(C#N)c(Cl)c1", "note": "(single isomer, unassigned) [11-1 or 11-2 (shorter retention time)]", "values": [{"measurement": "Max (maximum AR degradation rate)", "setting": "androgen receptor (AR)", "result": 96, "unit": "%"}, {"measurement": "DC50", "setting": "androgen receptor (AR)", "result": 6.6, "unit": "nM"}, {"measurement": "Max (maximum proliferation inhibition rate)", "setting": "LNCaP cells", "result": 72, "unit": "%"}, {"measurement": "IC50", "setting": "LNCaP cells", "result": 119, "unit": "nM"}]}
{"compound": "C[C@H]1CC2(CCN(c3ccc(C(=O)N4CCC(CN5CCN(c6cccc(NC7CCC(=O)NC7=O)c6)CC5)CC4)cc3)CC2)CN1c1ccc(C#N)c(Cl)c1", "note": "(single isomer, unassigned) [11-2 or 11-1 (longer retention time)]", "values": [{"measurement": "Max (maximum AR degradation rate)", "setting": "androgen receptor (AR)", "result": 97, "unit": "%"}, {"measurement": "DC50", "setting": "androgen receptor (AR)", "result": 1.6, "unit": "nM"}, {"measurement": "Max (maximum proliferation inhibition rate)", "setting": "LNCaP cells", "result": 72, "unit": "%"}, {"measurement": "IC50", "setting": "LNCaP cells", "result": 56, "unit": "nM"}, {"measurement": "Area under curve AUC0-t", "setting": "[1]", "result": 685, "unit": "ng·h/mL"}, {"measurement": "Clearance rate CL/F", "setting": "[1]", "result": 63.7, "unit": "mL/min/kg"}, {"measurement": "Half-life T½", "setting": "[1]", "result": 6.26, "unit": "h"}, {"measurement": "Plasma concentration Cmax", "setting": "[1]", "result": 77.1, "unit": "ng/mL"}, {"measurement": "effect on the body weight of the mice", "setting": "[2]; 1.5, 5 and 15 mpk, once daily for 21 days", "result": "little effect"}, {"measurement": "Mean tumor volume D 21", "setting": "[2]; 1.5 mpk", "result": 587, "unit": "mm^3"}, {"measurement": "Number of remaining animals/group", "setting": "[2]; 1.5 mpk", "result": "8/8"}, {"measurement": "TGI D 21", "setting": "[2]; 1.5 mpk", "result": 71, "unit": "%"}, {"measurement": "Mean tumor volume D 21", "setting": "[2]; 5 mpk", "result": 147, "unit": "mm^3"}, {"measurement": "Number of remaining animals/group", "setting": "[2]; 5 mpk", "result": "8/8"}, {"measurement": "TGI D 21", "setting": "[2]; 5 mpk", "result": 102, "unit": "%"}, {"measurement": "Mean tumor volume D 21", "setting": "[2]; 15 mpk", "result": 120, "unit": "mm^3"}, {"measurement": "Number of remaining animals/group", "setting": "[2]; 15 mpk", "result": "8/8"}, {"measurement": "TGI D 21", "setting": "[2]; 15 mpk", "result": 104, "unit": "%"}]}
{"compound": "C[C@H]1CC2(CCN(c3ccc(C(=O)N4CCC(CN5CCN(c6cccc(NC7CCC(=O)NC7=O)c6)CC5)CC4)nc3)CC2)CN1c1ccc(C#N)c(Cl)c1", "note": "(single isomer, unassigned) [12-1 or 12-2 (shorter retention time)]", "values": [{"measurement": "Max (maximum AR degradation rate)", "setting": "androgen receptor (AR)", "result": 95, "unit": "%"}, {"measurement": "DC50", "setting": "androgen receptor (AR)", "result": 3.5, "unit": "nM"}]}
{"compound": "C[C@H]1CC2(CCN(c3ccc(C(=O)N4CCC(CN5CCN(c6cccc(NC7CCC(=O)NC7=O)c6)CC5)CC4)nc3)CC2)CN1c1ccc(C#N)c(Cl)c1", "note": "(single isomer, unassigned) [12-2 or 12-1 (longer retention time)]", "values": [{"measurement": "Max (maximum AR degradation rate)", "setting": "androgen receptor (AR)", "result": 97, "unit": "%"}]}
